Patent publication US4305953A, “Synergistic fungicidal compositions” (priority 1979, dated 1981)

Test system: Botrytic cinerea isolated from four different cultivated plants
Test: interaction on benomyl-resistant Botrytis isolates, overall result in words
Details: benomyl 200 μg./ml.

Question: How did the “resistance of the isolates” value turn out when `CCCCNC(=O)n1c(NC(=O)OC)nc2ccccc21` [benomyl, methyl 1-(butylcarbamoyl)-2-benzimidazolecarbamate] was run?
Answer: The value was “resistant”.
